Laboratory results published in ChEMBL document CHEMBL4390673, “Identification of Novel Coumestan Derivatives as Polyketide Synthase 13 Inhibitors against Mycobacterium tuberculosis. Part II” (J Med Chem, 2019).

Assay: in vitro
Conditions: human, liver microsomes

Structure (SMILES): C[C@]12CC[C@H]3[C@@H](CCC4=CC(=O)CC[C@@]43C)[C@@H]1CC[C@@H]2O [TESTOSTERONE]
- CLint scaled: 69.8 mL/min/kg
